Reference: the pKa sets of Baltruschat and Czodrowski (2020)

Settings: experimental values compiled from the literature

Row | SMILES | pKa
1 | COc1ccc(CN(CC(=O)NC(C)C)C(=O)CCCCC[n+]2ccc(/C=N/O)cc2)cc1.[Br-] | 8.5
2 | CCOP(=O)(OCC)Oc1ccc([N+](=O)[O-])cc1 | 8.5
3 | O=[N+]([O-])c1cccc([N+](=O)[O-])c1O | 3.7
4 | NC1CCCCC1.NP(=O)(O)N(CCCl)CCCl | 4.58
5 | C[n+]1ccc(/C=N/O)cc1.[I-] | 8.6
6 | CCOP(=O)(SC(C)CC)N1CCCC1 (stereo unspecified) | 25
